The list shows a part of the results.

In this experiment the test system is A. baumannii ATCC 17978. Put plainly: relative growth (fraction of control); higher = less inhibition. The conditions noted are these: 50 µM.
With `N#Cc1cccnc1Oc1ccccc1`, the relative growth was found to be 1.01.

With `CC1(C)S[C@@H]2[C@H](NC(=O)C(C(=O)[O-])c3ccccc3)C(=O)N2[C@H]1C(=O)[O-].[Na+].[Na+]` (stereo partly drawn), the relative growth was determined as 0.992.

Turning to `C[C@H]1ON(c2ccc(C(=O)OC(C)(C)C)cc2)[C@@H](c2ccc(O)cc2)[C@@H]1C(=O)N1C(=O)OC[C@@H]1c1ccccc1`, the relative growth worked out at 1.18.

Regarding `COCCNC(=O)C[C@H]1CC[C@@H]2[C@H](COC[C@H](O)CN2C(=O)Nc2ccccc2OC)O1`, the relative growth turned out to be 1.03. The same measure for `C[C@@H]1CN([C@@H](C)CO)C(=O)CCCn2cc(nn2)CO[C@H]1CN(C)C(=O)Nc1ccc(N2CCN(C)CC2)cc1`: 1.05; for `CN1C(=O)/C(=C\NCc2ccccc2)C(=O)c2c1n(C)c(=O)n(C)c2=O`: 1; for `Cc1ccc(C(=O)CCNc2ccc3c(c2)oc2ccccc23)o1`: 0.9. The molecule `N=C(N=C(N)N)Nc1cc(-c2cccs2)n[nH]1` gave a relative growth of 0.953. For the molecule `COc1cccc(S(=O)(=O)Nc2ccc3c(c2)[C@@H]2C[C@H](CC(=O)NC4CCCCC4)O[C@@H](CO)[C@@H]2O3)c1`, the relative growth turned out to be 0.876. The same measure for `NS(=O)(=O)Cc1noc2ccccc12`: 0.834; for `COCC#Cc1ccc2c(c1)O[C@H](CN(C)S(=O)(=O)c1ccc(F)cc1)[C@H](C)CN([C@H](C)CO)S2(=O)=O`: 0.951; for `COc1ccc2c(c1)C(=O)N(CCc1ccc(S(=O)(=O)NC(=O)NC3CCCCC3)cc1)C(=O)C2(C)C`: 1.11. In turn, `Cc1ccc(S(=O)(=O)N2C[C@H](O)COC[C@@H]3O[C@@H](CC(=O)N[C@H]4CCN(Cc5ccccc5)C4)CC[C@H]32)cc1` registered a relative growth of 0.96. The molecule `O=C(N[C@H]1CC[C@H](CC(=O)N2CCOCC2)O[C@@H]1CO)c1ccc2c(c1)OCO2` registered a relative growth of 1.03. For `N#Cc1ccc(-c2ccccc2F)o1` the value was 0.895; for `CCCCCCCCCCOc1cc2c(O)c(C(=O)OCC)cnc2cc1OCC`, 1.49. For `COCC(=O)N(C)C[C@@H]1Oc2cc(C#C[C@H](C)O)ccc2S(=O)(=O)N([C@@H](C)CO)C[C@H]1C` the value was 1.

In turn, `CN(C)CCCNC(=O)C[C@@H]1CC[C@H](NS(=O)(=O)c2ccccc2)[C@H](CO)O1` displayed a relative growth of 0.978. The same measure for `Cc1cn([C@H]2C[C@H](N=[N+]=[N-])[C@@H](CO)O2)c(=O)[nH]c1=O`: 1.11. The molecule `COCCNC(=O)C[C@@H]1CC[C@@H](NS(=O)(=O)c2ccc(C)cc2)[C@@H](CO)O1` had a relative growth of 1.02. On to `OCCNC(=S)NC1CCCC1`, for which the relative growth was determined as 0.981.

For the molecule `O=C(C[C@H]1CC[C@H]2[C@@H](COC[C@@H](O)CN2S(=O)(=O)c2ccccc2)O1)NCc1ccc2c(c1)OCO2`, the relative growth worked out at 1.03. For `COc1ccc([C@H]([C@H](Cc2ccccc2)OC(C)=O)N(C[C@H](/C=C/c2ccccc2)CC(=O)N(C)C)[C@@H](Cc2ccccc2)C(OC)OC)cc1` the value was 1.13.

As for `C[C@H]1[C@H]([Si](C)(C)F)[C@@H](CC(=O)N2Cc3ccccc3C[C@H]2CO)O[C@]12C(=O)N(c1ccccc1)c1ccccc12`, the relative growth is 0.913.

Take `O=C(OCc1ccccc1)c1cccnc1`: the relative growth worked out at 1.32.

As for `O=C(Nn1cnnc1)c1ccccc1`, the relative growth amounted to 1.03. For `C[C@]12C=CC(=O)C=C1CCC1C2C(=O)C[C@@]2(C)C1CC[C@]2(O)C(=O)CO` (stereo partly drawn) the value was 1.03; for `Oc1ccccc1CNc1ccc(C2CCCCC2)cc1`, 1.08; for `C[C@@H]1CCC2[C@](C)(CO)[C@@H](O)CC[C@]2(C)[C@@]12CC[C@@](CO)(CCO)O2` (stereo partly drawn), 1.08.

`O=C(O)/C=C/C=C/c1ccccc1` showed a relative growth of 0.951. The same measure for `O=C(C[C@@H]1CC[C@H]2[C@@H](COC[C@@H](O)CN2S(=O)(=O)c2cccc(Cl)c2)O1)N1CCOCC1`: 0.969; for `Cc1cccc(S(=O)(=O)N2C[C@H](O)COC[C@@H]3O[C@H](CC(=O)N4CCN(C)CC4)CC[C@H]32)c1`: 1; for `C=CCOC(=O)[C@H]1[C@@H]2C(=O)O[C@@H](c3ccccc3)[C@@H](c3ccccc3)N2[C@@H](c2ccc(OCCOC(=O)NCCCCCC(=O)NO)cc2)[C@@]12C(=O)Nc1ccccc12`: 0.945. The molecule `CCCCC1C(=O)N(c2ccccc2)N(c2ccccc2)C1=O` showed a relative growth of 1.02. The same measure for `Brc1ccc(CSc2c[nH]c3ccccc23)cc1`: 0.854; for `NCCCc1ccc2c(c1)OCO2`: 0.958; for `COc1cccc(C#Cc2ccc3c(c2)O[C@H](CN(C)S(=O)(=O)c2ccccc2F)[C@H](C)CN([C@H](C)CO)S3(=O)=O)c1`: 0.979. The same measure for `N[C@@H](CC(=O)Nc1ccc(Cl)cc1)C(=O)O`: 1.12. As for `CCCc1nc2c(C)cc(-c3nc4ccccc4n3C)cc2n1Cc1ccc(-c2ccccc2C(=O)O)cc1`, the relative growth is 1.03. For the molecule `COc1ccc(S(=O)(=O)Nc2ccc3c(c2)[C@@H]2C[C@@H](CC(=O)NCC4CC4)O[C@H](CO)[C@@H]2O3)cc1`, the relative growth was found to be 1.27. The same measure for `CO[C@@H](CN(C)S(=O)(=O)c1cn(C)cn1)[C@@H](C)CN(C(=O)Nc1ccc(C(F)(F)F)cc1)[C@@H](C)CO`: 0.911; for `CC(C)(C)OC(=O)C[C@H]1CC=CC[C@@H](CC(=O)N[C@@H](CO)Cc2ccccc2)C(=O)N[C@@H](C(C)(C)C)COC1=O`: 0.859.

As for `CCCCOC(=O)c1ccc(O)cc1`, the relative growth was found to be 1.05. For `C#C[C@]1(OC(C)=O)CC[C@H]2[C@@H]3CCC4=CC(=O)CC[C@@H]4[C@H]3CC[C@@]21C` the value was 1.01; for `CC(=O)OCC[N+](C)(C)C.[Cl-]`, 1.12. The same measure for `O=C(O)[C@H]1C[C@H](O)CN1Cc1ccccc1`: 1.13; for `COc1ccc(-c2cc(=O)c3c(O)c(OC)c(OC)c(OC)c3o2)cc1OC`: 1.1. For `C[C@@H]1CCCCO[C@H](CN(C)Cc2ccc3c(c2)OCO3)[C@@H](C)CN([C@H](C)CO)C(=O)c2cc(NS(=O)(=O)c3cccs3)ccc2O1` the value was 0.862. Turning to `CC1=CC(=O)c2ccccc2C1=O`, the relative growth turned out to be 0.564. For the molecule `CO[C@@H](CN(C)C(=O)C1CCOCC1)[C@@H](C)CN(C(=O)Nc1ccc(C(F)(F)F)cc1)[C@H](C)CO`, the relative growth came to 0.922. The same measure for `COc1cccc(S(=O)(=O)N(C)C[C@H]2Oc3ncc(-c4cccc(C(=O)N(C)C)c4)cc3C(=O)N([C@@H](C)CO)C[C@H]2C)c1`: 1.09; for `Cc1ccccc1N1CCN(S(=O)(=O)C[C@@]23CC[C@@H](C[C@@H]2NC(=O)[C@@H](N)CCS(C)(=O)=O)C3(C)C)CC1`: 0.917; for `Cn1cnc(CCNC(=O)C[C@@H]2CC[C@@H]3[C@H](COC[C@@H](O)CN3C(=O)Nc3ccc(C(F)(F)F)cc3)O2)c1`: 1.06.

(Values after published antibiotic growth screens (doi:10.1038/s41589-023-01349-8).)
